From patent publication US7465741B2, “C-substituted tricyclic isoxazoline derivatives and their use as anti-depressants” (Janssen Pharmaceutica N.V., priority 2002, dated 2008)

The chains behind the UniProt entries cited, without tags or fusion partners.
UniProt P08913, whole entry: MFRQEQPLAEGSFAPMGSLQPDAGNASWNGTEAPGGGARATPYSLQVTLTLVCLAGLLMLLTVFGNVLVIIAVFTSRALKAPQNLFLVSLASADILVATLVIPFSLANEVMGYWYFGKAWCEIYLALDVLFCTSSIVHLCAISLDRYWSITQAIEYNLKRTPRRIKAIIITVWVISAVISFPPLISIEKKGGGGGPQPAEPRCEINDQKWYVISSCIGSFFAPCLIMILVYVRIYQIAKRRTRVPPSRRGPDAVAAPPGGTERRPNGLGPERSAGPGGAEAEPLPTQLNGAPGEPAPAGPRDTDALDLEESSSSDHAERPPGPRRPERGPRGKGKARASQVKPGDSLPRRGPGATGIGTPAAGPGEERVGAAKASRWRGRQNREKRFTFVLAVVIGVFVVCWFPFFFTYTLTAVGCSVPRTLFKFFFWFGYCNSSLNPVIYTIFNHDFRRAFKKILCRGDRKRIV
UniProt P18089, whole entry: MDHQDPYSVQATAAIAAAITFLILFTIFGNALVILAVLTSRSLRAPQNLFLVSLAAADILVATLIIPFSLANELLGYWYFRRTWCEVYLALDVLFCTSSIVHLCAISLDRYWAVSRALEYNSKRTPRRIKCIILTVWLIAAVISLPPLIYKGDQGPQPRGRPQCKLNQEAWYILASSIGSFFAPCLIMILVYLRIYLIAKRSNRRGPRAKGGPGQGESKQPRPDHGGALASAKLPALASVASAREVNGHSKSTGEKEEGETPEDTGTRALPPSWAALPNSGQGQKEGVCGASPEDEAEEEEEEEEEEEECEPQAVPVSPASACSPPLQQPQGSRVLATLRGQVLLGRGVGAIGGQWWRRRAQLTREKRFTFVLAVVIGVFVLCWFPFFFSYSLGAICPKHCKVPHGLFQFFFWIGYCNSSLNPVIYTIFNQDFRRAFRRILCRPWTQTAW
UniProt P18825, whole entry: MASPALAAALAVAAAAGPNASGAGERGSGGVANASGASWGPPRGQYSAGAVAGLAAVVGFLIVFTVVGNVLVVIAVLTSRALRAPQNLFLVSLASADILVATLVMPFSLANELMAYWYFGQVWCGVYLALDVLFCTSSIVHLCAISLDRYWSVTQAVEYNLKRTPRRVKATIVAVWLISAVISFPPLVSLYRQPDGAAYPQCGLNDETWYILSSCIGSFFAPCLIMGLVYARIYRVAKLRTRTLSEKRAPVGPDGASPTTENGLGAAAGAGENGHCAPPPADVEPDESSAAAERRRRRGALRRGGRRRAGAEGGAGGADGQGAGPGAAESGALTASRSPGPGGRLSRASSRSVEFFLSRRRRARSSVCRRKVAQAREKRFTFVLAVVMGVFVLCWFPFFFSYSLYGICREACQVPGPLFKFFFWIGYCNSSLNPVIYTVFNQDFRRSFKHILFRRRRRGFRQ
UniProt P31645, whole entry: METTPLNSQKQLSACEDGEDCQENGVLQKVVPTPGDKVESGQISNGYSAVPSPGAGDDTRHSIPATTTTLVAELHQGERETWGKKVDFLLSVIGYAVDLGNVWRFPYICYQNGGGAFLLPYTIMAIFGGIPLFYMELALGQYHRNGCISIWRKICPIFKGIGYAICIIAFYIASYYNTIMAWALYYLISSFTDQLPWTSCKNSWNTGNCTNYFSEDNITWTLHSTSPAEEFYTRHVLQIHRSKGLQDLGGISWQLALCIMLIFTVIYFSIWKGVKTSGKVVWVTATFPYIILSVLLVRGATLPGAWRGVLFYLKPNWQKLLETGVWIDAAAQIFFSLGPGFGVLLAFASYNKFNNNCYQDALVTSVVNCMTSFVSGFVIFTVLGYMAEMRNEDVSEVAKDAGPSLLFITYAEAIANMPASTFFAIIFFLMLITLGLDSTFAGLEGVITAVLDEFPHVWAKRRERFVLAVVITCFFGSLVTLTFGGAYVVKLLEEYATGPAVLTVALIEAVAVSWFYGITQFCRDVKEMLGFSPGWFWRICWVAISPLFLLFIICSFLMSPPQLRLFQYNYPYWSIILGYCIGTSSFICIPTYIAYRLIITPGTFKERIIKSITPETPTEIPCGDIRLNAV

How the values were obtained:
hα2A receptor = hα2A receptor (Homo sapiens, UniProt P08913); experiment: Radioligand binding experiment for hα2A receptor ([3H]-raulwolscine, CHO cell membranes); conditions: [3H]-raulwolscine 1 nM, membranes of CHO cells transfected with human α2A receptor
Description: (§1) The interaction of the compounds according to Formula (I) with hα2-receptors and h5-HT-transporters was assessed in in vitro radioligand binding experiments. In general, a low concentration of a radioligand with a high binding affinity for a particular receptor or transporter is incubated with a sample of a tissue preparation enriched in a particular receptor or transporter or with a preparation of cells expressing cloned human receptors in a buffered medium. During the incubation, the radioligand binds to the receptor or transporter. When equilibrium of binding is reached, the receptor bound radioactivity is separated from the non-bound radioactivity, and the receptor- or transporter-bound activity is counted. The interaction of the test compounds with the receptor is assessed in competition binding experiments. […]
(§2) Membranes were thawed and re-homogenized in incubation buffer (glycylglycine 25 mM, pH 8.0). […] Filter-bound radioactivity was determined by scintillation counting in a Topcount (Packard, Meriden, Conn.) and results were expressed as counts per minute (cpm). Non-specific binding was determined in the presence of 1 μM oxymetazoline for hα2A- and hα2B receptors and 1 μM spiroxatrine for hα2C receptors.
(§3) Data from assays in the presence of compound were calculated as a percentage of total binding measured in the absence of test compound. […]

hα2B receptor = hα2B receptor (Homo sapiens, UniProt P18089); experiment: Radioligand binding experiment for hα2B receptor ([3H]-raulwolscine, CHO cell membranes); conditions: [3H]-raulwolscine 1 nM, membranes of CHO cells transfected with human α2B receptor
Description: as §1, §2, §3

hα2C receptor = hα2C receptor (Homo sapiens, UniProt P18825); experiment: Radioligand binding experiment for hα2C receptor ([3H]-raulwolscine, CHO cell membranes); conditions: [3H]-raulwolscine 1 nM, membranes of CHO cells transfected with human α2C receptor
Description: as §1, §2, §3

h5-HT transporter = h5-HT transporter (Homo sapiens, UniProt P31645); experiment: Radioligand binding experiment for 5-HT transporter ([3H]paroxetine, human platelet membranes); conditions: [3H]paroxetine 0.5 nM
Description: as §1
Human platelet membranes (Oceanix Biosciences Corporation, Hanover, Md., USA) were thawed, diluted in buffer (Tris-HCl 50 mM, 120 mM NaCl and 5 mM KCl) and quickly (max 3 s) homogenised with an Ultraturrax homogenizer. […] Filters were rinsed extensively with ice-cold buffer and radioactivity on the filters was counted in a Topcount liquid scintillation counter (Packard, Meriden, Conn.). Data were expressed as cpm. […]
as §3

pIC50 hα2A (hα2A receptor): 7.8 | pIC50 hα2B (hα2B receptor): 8.1 | pIC50 hα2C (hα2C receptor): 8.2 | pIC50 h5HTT (h5-HT transporter): 7.9
Structure (SMILES): COc1cc2c(cc1CC1CC1)OCC1C2=NOC1CN1CCN(CC(C)=Cc2ccc(F)cc2)CC1 (stereo not shown)
